The results in this text go back to patent US4284653A, “Process for handling and processing fish meat” (Nippon Suisan Kabushiki Kaisha, priority 1979, dated 1981).

The assay relates to protease of hake flesh with jellied condition. Description: Inhibition of protease in aqueous extract of hake meat with jellied condition (urea-denatured hemoglobin substrate, Folin method). Format: biochemical. The settings on record: aqueous fish meat extract, pH 3, 5 min. How it is done:
North Pacific hake (Merluccius products) on which the sporosa were parasitic was minced and homogenized with two volumes of water. After standing for 2 hours, the homogenate was centrifuged (15,000 xg, 20 minutes) under cooling condition, and the supernatant was dialyzed against tap water for 24 hours. The residual liquid remaining after the dialysis was heated at 50° C. for 20 minutes. The resulting precipitate was removed under cooling by centrifuge (15,000 xg, 30 minutes). The supernatant liquid was designated an aqueous extract of fish meat with jellied condition.
Separately, 3 ml of Mclvaine buffer solution (pH=3) was added to 1 ml of urea-denatured bovine hemoglobin (at a concentration of 4%) to prepare a substrate solution. 1 ml of a 1:1 mixture of the above obtained extract and a solution of various TPI was added to the above prepared substrate solution. The resulting mixture was incubated at 40° C. for 5 minutes. Thereafter, 5 ml of a 5% trichloroacetic acid was added to the mixture to allow the reaction to stop. […] 1 ml of the filtrate was colorometrically determined at a wave length of 660 mμ by a Folin method.
The protease inhibition ratio of various proteolytic activity of the TPI is expressed as the […] relative activity with respect to 100 of the activity of an extract prepared by adding water instead of the TPI solution. […]

On to `[K+].[O-][Br+2]([O-])[O-]` [potassium bromate], for which the “inhibition ratio (%)” value turned out to be 98.0%.
